High-throughput results: PubChem, National Center for Advancing Translational Sciences (NCATS)
ClpP mod – qHTS Assay for Activators of ClpP; purified B. subtilis ClpP, FRET peptide cleavage, 20 min; Potency, µM (doses to about 57.5 µM); 1.9% of 340,000 active; AID 651965, 2013; active = well fitted falling curve with a large enough effect; inconclusive = small, poorly fitted or top-dose-only effect; inactive = no such curve, though single readings can be large or run the other way; also: the source files actives as falling curves though it sought activators and does not explain the sign; nearly all actives have a fitted effect of over 65% in size
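Buffer: 100 mM Tris/HCl pH8, 100 mM KCl, 0.05% low protease BSA, 2.5% glycerol, 0.01% Tween-20. ClpP 10 microg/mL final; 20 min RT; delta FRET normalized to ADEP and DMSO controls.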
TCR act – T cell receptor activation. AID 504894. 330,000 tested, under 10 active. Potency, µM (doses to about 9.22 µM), hits mostly activators. primary human leukocytes, anti-CD3, IL-2 HTRF, 48 h
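IL-2 release read by HTRF sandwich (Eu cryptate donor, d2 acceptor, 665 nm emission) after 48 hr exposure of primary human leukocytes to compound together with anti-CD3 beads in the absence of co-stimulatory signals.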
A549 tox – counter-screen for Nrf2 inhibitors: cytotoxicity in A549 cells; A549 ARE-Fluc cells, CellTiter-Fluor viability, 18-24 h; Potency, µM (titrated, usually from 46 µM), most hits filed as inhibitors; 0.16% of 390,000 active
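Cytotoxicity counterscreen: CellTiter-Fluor fluorescence was measured in A549 ARE_Fluc cells after 18-24 h of compound exposure in a concentration series. The subsequent BugLite luminescent read reports ARE-luciferase activity.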
miR-21 reporter – miR-21 reporter, rising signal; HeLa miR-21 FLuc reporter, luciferase, 48 h; Potency, µM (doses to about 38.3 µM); 340,000 tested, under 10 active; AID 2288; active = well fitted rising curve with a large enough effect; inconclusive = small, poorly fitted or top-dose-only effect; inactive = no such curve, though single readings can be large or run the other way;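 further: miR-21 action dims this reporter so a rising signal means less miR-21 action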
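Using DMEM plus 10% FBS, HeLa miR-21-FLuc cells are incubated with test compounds (final up to about 40uM) for 48 hours; firefly luciferase signal is then imaged following reagent-mediated lysis.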
Nrf2 ARE act – activates Nrf2 signaling | Potency, µM (doses to about 46.1 µM), most hits filed as activators | AID 624171 | AREc32 ARE-luciferase reporter (MCF7-derived line), luminescence, 24 h | 0.31% of 410,000 active; also: nearly all actives have a fitted effect of over 65% in size
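Nrf2 activation is followed as ARE-luciferase induction in the AREc32 line after one day of compound treatment; luminescence is read with Steady-Glo.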
Nrf2 block – Nrf2 pathway inhibition. A549 ARE-Fluc reporter, luciferase luminescence, 18-24 h. Potency, µM (titrated, usually from 46 µM), usual class: inhibitors. 2.1% of 360,000 active. AID 504444; also: nearly all actives have a fitted effect of over 60% in size
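Reporter: ARE-Fluc in A549. Exposure: 18-24 h, 37 °C, 5% CO2, 5% FBS OPTI-MEM. Readouts: fluorescent cytotoxicity (CellTiter-Fluor), then luminescent Nrf2 signal after BugLite.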
A number is an active result; . = inactive; ? = inconclusive; / = not tested or not shown. An excerpt weighted towards active compounds, which were near 3.7% of everything screened. Unless noted, calls follow the shape of the dose curve; as a rule, active = well fitted curve in the direction sought with a large enough effect; inconclusive = small, poorly fitted or top-dose-only effect, or another doubt; inactive = no such curve, though single readings can be large; an effect the other way counts as inactive or inconclusive.

SMILES | ClpP mod | TCR act | A549 tox | miR-21 reporter | Nrf2 ARE act | Nrf2 block
CN1CCC(=O)N([C@H](CN=[N+]=[N-])Cc2ccccc2)CC1 | . | . | ? | . | . | ?
O=C(O)c1ccccc1-c1ccccc1C(=O)NCc1ccccc1F | 8.9µM | / | . | . | . | .
CC(C)CNC(=O)c1ccccc1-c1ccccc1C(=O)O | . | / | . | . | . | ?
O=S(=O)(c1ccc2c(c1)OCO2)N1CCN(S(=O)(=O)c2c(F)cccc2F)CC1 | / | / | . | / | / | .
O=C1CCCC2=C1C(c1ccco1)Nc1ccc3ccccc3c12 (centres undefined) | 35µM | . | . | . | ? | .
Cc1ccc(C2Nc3ccc4ccccc4c3C3=C2C(=O)CC(C)(C)C3)o1 (centres undefined) | 14µM | . | . | . | . | .
COc1ccc(C(=O)NC(=S)Nc2ccc(N3CCN(C(C)=O)CC3)cc2)cc1[N+](=O)[O-] | . | . | . | . | . | .
CC(=O)N1CCN(c2ccc(NC(=S)NC(=O)c3ccc(C)c([N+](=O)[O-])c3)cc2)CC1 | 32µM | . | . | . | . | .
C=CCn1c(SCC(=O)Nc2sccc2C(N)=O)nc2sc(CC)cc2c1=O | . | . | ? | . | . | 15µM
C=CCn1c(SCC(=O)Nc2sccc2C(N)=O)nc2ccc(Cl)cc2c1=O | . | . | ? | . | . | ?
C=CCn1c(SCC(=O)Nc2sccc2C(N)=O)nc2ccccc2c1=O | . | . | . | . | . | 26µM
C=CCn1c(SC(C)C(N)=O)nc2sc(CC)cc2c1=O (centres undefined) | / | . | . | . | . | .
COCCn1c(SCC(=O)/C=C2\N(C)c3ccccc3C2(C)C)nnc1-c1ccncc1 | . | . | . | . | . | 23µM
COc1ccc(Nc2nnc(SCC(=O)/C=C3/N(C)c4ccccc4C3(C)C)s2)cc1 | . | . | ? | ? | . | 23µM
O=c1[nH][nH]c2c1[C@H](c1ccc(Cl)cc1)O[C@H](C1CCCC1)C2 | . | / | / | / | . | /
COc1ccc(O)c(C2Nc3ccccc3C(=O)N2Cc2ccccc2)c1 (centres undefined) | / | / | . | / | / | .
O=C1c2ccccc2NC(c2ccc(Cl)cc2Cl)N1O (centres undefined) | . | . | . | . | . | ?
Cc1cccc(C2Nc3ccccc3C(=O)N2CCc2ccccc2)n1 (centres undefined) | 18µM | . | . | . | . | .
O=C1c2ccccc2NC(c2c(Cl)cccc2Cl)N1Cc1ccccc1 (centres undefined) | 32µM | . | . | . | . | /
O=C1c2ccccc2NC(c2ccc(Cl)cc2Cl)N1Cc1ccccc1 (centres undefined) | 32µM | . | ? | . | . | /
COc1ccc(CCNC(=O)CCCCn2c(=O)c3ccccc3n(Cc3cccc(C)c3)c2=O)cc1OC | . | / | . | . | . | .
Cn1cc(CN2CCC(Oc3ccc(C(=O)N4CCCCC4)cc3)CC2)cn1 | . | / | . | . | . | .
CC(C)n1cc(CN2CCC(Oc3ccc(C(=O)N4CCCCC4)cc3)CC2)cn1 | 22µM | . | . | . | . | .
CCN1/C(=C/c2ccc3ccccc3[n+]2CC)C=Cc2ccccc21 | . | . | 9.2µM | ? | . | 2.9µM
CCN1/C(=C/c2ccc3ccccc3[n+]2CCCS(=O)(=O)[O-])C=Cc2cc(C)ccc21 | / | . | ? | . | . | .
SMILES | ClpP mod | TCR act | A549 tox | miR-21 reporter | Nrf2 ARE act | Nrf2 block
COc1ccc2c(c1)C(=O)Cc1ccccc1O2 | / | . | . | / | . | .
COC(=O)c1ccc(Cn2ncc3c4sc(C)cc4n(C)c3c2=O)cc1 | / | / | . | / | / | .
CCOc1ccc(CNC(=O)C2CCN(c3nnc(-n4c(C)ccc4C)s3)CC2)cc1 | . | / | . | . | . | 15µM
Cc1cccn2cc(-c3ccccc3)nc12 | 10µM | . | . | . | . | ?
COc1ccc(-c2cn3ccc4ccccc4c3n2)cc1 | 28µM | . | . | . | . | ?
Cc1ccc2nc(-c3ccccc3)cn2c1 | 14µM | . | . | ? | . | 6.5µM
